This test deals with T1, Flag-tagged Pds5b-Ser1161,1166Ala (2A), untreated or exposed to Cdk1/2-cyclin A2 (human, UniProt Q9NTI5 1-1447, Ser1161,1166Ala | Ser1161,1166Ala).
T1 sequence: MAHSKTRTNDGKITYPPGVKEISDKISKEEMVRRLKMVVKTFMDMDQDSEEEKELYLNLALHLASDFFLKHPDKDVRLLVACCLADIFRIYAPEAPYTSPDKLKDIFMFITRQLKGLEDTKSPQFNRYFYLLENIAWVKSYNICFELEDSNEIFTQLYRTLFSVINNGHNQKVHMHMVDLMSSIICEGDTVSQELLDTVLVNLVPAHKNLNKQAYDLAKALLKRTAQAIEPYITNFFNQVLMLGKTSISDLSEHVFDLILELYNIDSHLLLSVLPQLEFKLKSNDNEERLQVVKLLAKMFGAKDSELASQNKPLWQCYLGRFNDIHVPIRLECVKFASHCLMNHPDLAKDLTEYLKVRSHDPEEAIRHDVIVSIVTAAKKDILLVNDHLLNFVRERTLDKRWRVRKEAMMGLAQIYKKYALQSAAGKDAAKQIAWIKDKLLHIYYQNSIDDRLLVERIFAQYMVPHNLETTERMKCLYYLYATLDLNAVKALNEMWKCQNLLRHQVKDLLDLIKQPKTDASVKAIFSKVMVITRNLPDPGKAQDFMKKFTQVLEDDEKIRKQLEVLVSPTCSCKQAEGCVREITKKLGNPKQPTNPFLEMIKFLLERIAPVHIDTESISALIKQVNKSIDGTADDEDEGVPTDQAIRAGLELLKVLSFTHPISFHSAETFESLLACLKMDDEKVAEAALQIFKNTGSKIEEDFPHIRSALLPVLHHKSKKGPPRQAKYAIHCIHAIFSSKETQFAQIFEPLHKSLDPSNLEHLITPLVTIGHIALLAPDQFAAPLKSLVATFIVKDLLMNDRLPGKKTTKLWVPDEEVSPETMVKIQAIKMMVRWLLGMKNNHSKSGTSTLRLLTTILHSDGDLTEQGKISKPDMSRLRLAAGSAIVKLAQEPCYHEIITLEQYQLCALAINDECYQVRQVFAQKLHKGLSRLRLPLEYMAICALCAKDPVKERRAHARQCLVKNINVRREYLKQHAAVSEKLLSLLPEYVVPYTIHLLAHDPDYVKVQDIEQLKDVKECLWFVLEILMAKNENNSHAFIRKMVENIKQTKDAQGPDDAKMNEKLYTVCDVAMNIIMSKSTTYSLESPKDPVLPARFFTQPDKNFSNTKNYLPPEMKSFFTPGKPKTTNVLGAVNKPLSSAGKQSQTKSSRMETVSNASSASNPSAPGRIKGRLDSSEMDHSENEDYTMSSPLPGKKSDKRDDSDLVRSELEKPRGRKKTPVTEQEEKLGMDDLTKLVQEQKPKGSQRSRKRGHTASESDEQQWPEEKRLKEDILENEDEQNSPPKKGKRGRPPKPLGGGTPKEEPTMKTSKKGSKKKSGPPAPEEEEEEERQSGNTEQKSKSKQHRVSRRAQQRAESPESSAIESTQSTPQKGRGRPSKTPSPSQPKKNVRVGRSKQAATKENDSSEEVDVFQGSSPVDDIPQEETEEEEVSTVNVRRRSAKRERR
The experiment in a line: pull-down.

B1: His6-SUMO3-sororin (natural protein)
chain: MSGRRTRSGGAAQRSGPRAPSPTKPLRRSQRKSGSELPSILPEIWPKTPSAAAVRKPIVLKRIVAHAVEVPAVQSPRRSPRISFFLEKENEPPGRELTKEDLFKTHSVPATPTSTPVPNPEAESSSKEGELDARDLEMSKKVRRSYSRLETLGSASTSTPGRRSCFGFEGLLGAEDLSGVSPVVCSKLTEVPRVCAKPWAPDMTLPGISPPPEKQKRKKKKMPEILKTELDEWAAAMNAEFEAAEQFDLLVE
On to B1, for which the binding result is given as “binds”.
